Data published in patent US20240058455A1, “BIOORTHOGONAL LINKERS AND REACTIONS” (The General Hospital Corporation, priority 2020, published 2024).

What was measured:
EGFR-positive A431 cells = test: Imaging of A431 cells stained with Cetux-C2TCO-AF594, click-to-cut with HPA; assay type: cell-based
Experimental: (§1) At an average DOL of 0.9, Cetux-C2TCO-AF594 prepared with a high concentration of 21 (˜250 μM) achieved >97% cleavage and the respective probe was therefore carried forward for further investigation. EGFR-positive A431 cells were stained with Cetux-C2TCO-AF594, washed and imaged to establish target-specific staining and baseline brightness (ON-state). […] In contrast to image cycling based on click-driven quenching, bioorthogonal disassembly of antibody-C2TCO probes enables multiplexed imaging without any potential rebound in brightness (e.g., caused by degradation of quenched conjugates) as the dye is cleaved and thus removed upon click-to-cut reaction with Tz.

[1] = C2TCO cleavage of clicked antibody conjugates after reaction with Tz; details: average DOL 0.9, prepared with ~250 μM 21
Experimental: Azido-antibodies were tested at different degrees of labeling (DOL) and the C2TCO cleavage of the clicked conjugates was analyzed after reaction with Tz. No cross-reactivity of 21 with azides was observed (at concentrations of up to 100 mM) in various solvents (incl. PBS), but when clicked to the antibody, a consistent trend toward lower C2TCO reactivity was noted as the number of azides per antibody increased.
as §1

Substance: Cetux-C2TCO-AF594: cetuximab N3 click-conjugated to DBCO-C2TCO-AF594 (21)
- residual background signal, of the peak staining intensity (EGFR-positive A431 cells; HPA 500 μM in PBS, line-intensity profile): less than 3%
- time to near-quantitative bioorthogonal disassembly (EGFR-positive A431 cells; cell imaging, HPA): ≤ 6 min
- cleavage [1]: > 97%
